{
  "sequences": {"note": "Amino acid sequences for entries named in this document (tags omitted). Residues count along the entry.", "UniProt Q13231, 22-466": "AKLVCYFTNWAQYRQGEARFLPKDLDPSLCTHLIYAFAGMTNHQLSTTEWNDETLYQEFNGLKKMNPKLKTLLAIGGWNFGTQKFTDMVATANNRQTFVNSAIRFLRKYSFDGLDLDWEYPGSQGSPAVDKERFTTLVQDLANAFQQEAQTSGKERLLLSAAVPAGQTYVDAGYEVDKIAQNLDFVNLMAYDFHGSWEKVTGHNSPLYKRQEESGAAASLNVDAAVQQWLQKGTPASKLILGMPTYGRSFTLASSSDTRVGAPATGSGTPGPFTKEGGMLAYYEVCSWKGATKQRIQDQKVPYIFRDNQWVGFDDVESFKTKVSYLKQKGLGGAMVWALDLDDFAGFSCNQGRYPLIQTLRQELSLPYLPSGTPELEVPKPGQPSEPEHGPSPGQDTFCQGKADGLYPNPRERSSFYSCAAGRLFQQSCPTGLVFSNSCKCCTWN"},
  "source": "patent US9944624B2",
  "about": "(dated 2018)",
  "target": "recombinant human CHIT1 (Homo sapiens (Human), UniProt Q13231)",
  "experiment": "Human CHIT1 activity assay (fluorescent 4MU substrate)",
  "assay_type": "biochemical",
  "data": [
    {"molecule": "CO[C@H]1CN(c2n[nH]c(N)n2)CC[C@@H]1N1C[C@H](C)OC[C@@H]1Cc1ccc(Cl)cc1", "note": "[Example 54, 3-((3 S,4S)-4-((2S,5S)-5-(4-chlorobenzyl)-2-methylmorpholino)-3-methoxypiperidin-1-yl)-1H-1,2,4-triazol-5-amine]", "values": [
      {"measurement": "IC50", "value": "100 to 1000", "unit": "nM"}
    ]}
  ]
}
